Target: T1, MCL-1/FITC-NOXA-B interaction (Homo sapiens, UniProt Q07820)
T1 construct: Recombinant MCL-1_172–327 was expressed and purified as published previously; made in house
Experiment: Fluorescence anisotropy competition, MCL-1/FITC-NOXA-B
Type: biochemical

By UniProt entry, the sequences of proteins in these tests, tags left out. Residues count along the entry.
UniProt Q07820, 172-327: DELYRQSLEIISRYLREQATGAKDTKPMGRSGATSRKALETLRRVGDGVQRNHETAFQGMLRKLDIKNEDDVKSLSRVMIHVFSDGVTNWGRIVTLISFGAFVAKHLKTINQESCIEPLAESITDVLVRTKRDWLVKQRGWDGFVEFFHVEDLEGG

**Q.** For `CC[C@H](C)[C@H](NC(=O)[C@H](CCCNC(=N)N)NC(=O)[C@H](CCCNC(=N)N)NC(=O)[C@H](CC(C)C)NC(=O)[C@H](CCC(N)=O)NC(=O)[C@H](C)NC(=O)[C@H](C)NC(C)=O)C(=O)NCC(=O)N[C@@H](CC(=O)O)C(=O)N[C@@H](CCCCN)C(=O)N[C@H](C(=O)N[C@@H](CC(N)=O)C(=O)N[C@@H](CC(C)C)C(=O)N[C@@H](CCCNC(=N)N)C(=O)N[C@@H](CCC(N)=O)C(=O)N[C@@H](CCCCN)C(=O)N[C@@H](CC(C)C)C(=O)N[C@@H](CC(C)C)C(=O)N[C@@H](CC(N)=O)C(N)=O)C(C)C` [compound 5], which IC50 is on record?
**A.** Its IC50 is 2070 ± 334 nM.
